# scFv variants of Ab-14 (heavy chain) against a SARS-CoV-2 spike peptide

The measurements come from Li et al. 2023 (doi:10.1038/s41467-023-39022-2) through the FLAb antibody collection.

All variants were tested on one target, the spike HR2 peptide PDVDLGDISGINAS (SARS-CoV-2).

The variants keep the light chain, the linker and the frameworks of Ab-14 (scFv order VH, the linker GGGGSGGGGSGGGGS, VL).
VH: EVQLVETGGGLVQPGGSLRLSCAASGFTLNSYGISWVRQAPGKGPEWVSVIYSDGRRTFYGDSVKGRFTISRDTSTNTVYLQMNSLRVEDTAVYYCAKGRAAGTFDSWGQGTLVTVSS
VL: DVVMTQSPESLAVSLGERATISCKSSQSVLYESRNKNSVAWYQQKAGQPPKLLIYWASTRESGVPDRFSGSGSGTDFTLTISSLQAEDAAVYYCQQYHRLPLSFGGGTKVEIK

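Phage display of a naive human antibody library on the peptide gave the parent. These sequences belong to a second round, designed from the earlier measurements on random variants of the parent. Group labels follow the data file (Ctrl: baseline library sampled from a position-specific scoring matrix, with some repeated check sequences; Rand: our label for a block that the file lists under HC and that is probably the random mutants of the ten best first-round binders; En: ensemble of fine-tuned language models; GP: Gaussian process model; GPLM: also part of the Gaussian process libraries; HC: hill climbing; Gen: genetic algorithm; Gibbs: Gibbs sampling; a sequence that several methods proposed may carry one label only). In AlphaSeq, yeast of one mating type display the scFv and yeast of the other type display the target. The frequency of each diploid, read from paired DNA barcodes, reflects how well the two displayed proteins bind. Read counts were normalised to the haploid input and turned into Kd by a linear fit to BCL2-family pairs of known affinity, for each replicate. Each pool was mated in six replicate cultures.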

Each variant's VH is given in full. Values are log10 of the apparent Kd in nM; lower means stronger binding. A mean of the replicates is given; it leaves out those without a signal. An entry "nd" has no value in the source: the pair was not observed among the diploids in any replicate. This suggests poor binding but is not conclusive. The parent sequence was in this pool as ten entries: three were never detected, three once, and four in most replicates, with averages from 0.34 to 2.37.

VH | group | mean, log10 nM | detected
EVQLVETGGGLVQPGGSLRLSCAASGFSLNSYGISWVRQAPGKGPEWVSVIYSDGHRTFYGDSVKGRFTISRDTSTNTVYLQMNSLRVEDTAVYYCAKGRTAGTFDSWGQGTLVTVSS | GPLM_Gen | 0.82 | 6 of 6
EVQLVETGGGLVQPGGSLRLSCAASGFTLNSYGISWVRQAPGKGPEWVSVIYADGRRTFYGDSVKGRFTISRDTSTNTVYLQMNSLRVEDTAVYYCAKGQAAGTFDKWGQGTLVTVSS | GPLM_Gen | 0.79 | 6 of 6
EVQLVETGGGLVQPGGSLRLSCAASGFGLNEYGISWVRQAPGKGPEWVSVIFADGQRKYYADNVKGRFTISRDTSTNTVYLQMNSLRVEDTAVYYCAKGHFGEDGVVWGQGTLVTVSS | En_Gibbs | nd | 0 of 6
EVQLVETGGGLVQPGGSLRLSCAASGESLDEFGISWVRQAPGKGPEWVSVIYADGMRTAYTDKVKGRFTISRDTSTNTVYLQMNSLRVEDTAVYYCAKGLVAATFVDWGQGTLVTVSS | En_Gibbs | nd | 0 of 6
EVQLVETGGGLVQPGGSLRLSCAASGFSLDEYGISWVRQAPGKGPEWVSVIYADGRRTAYTQNVKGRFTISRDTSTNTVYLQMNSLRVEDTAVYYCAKGLMQQGRTMWGQGTLVTVSS | En_Gibbs | nd | 0 of 6
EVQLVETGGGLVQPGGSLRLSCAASGFQLNSYGISWVRQAPGKGPEWVSVIYSDGRRTFYVDSVKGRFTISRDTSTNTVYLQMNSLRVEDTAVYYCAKGRQAGTFDSWGQGTLVTVSS | GP_Gen | nd | 0 of 6
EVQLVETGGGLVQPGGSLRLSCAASGFSLNSYGISWVRQAPGKGPEWVSVIYSDGRRTFYGDAVKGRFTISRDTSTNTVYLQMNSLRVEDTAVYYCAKGRTAGTFDSWGQGTLVTVSS | GPLM_Gen | 0.48 | 6 of 6
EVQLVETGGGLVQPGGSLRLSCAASGFQLKSYGISWVRQAPGKGPEWVSVIYSDGRRTFYGDNVKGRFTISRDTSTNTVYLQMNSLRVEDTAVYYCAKGRTAGTFDSWGQGTLVTVSS | GP_Gibbs | 1.83 | 5 of 6
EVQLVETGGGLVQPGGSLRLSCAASGFDLNSYGISWVRQAPGKGPEWVSVIYSDGRRTFYGDQVKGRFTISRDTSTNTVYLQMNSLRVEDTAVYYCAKGQIAGTFDSWGQGTLVTVSS | GP_Gen | 0.48 | 6 of 6
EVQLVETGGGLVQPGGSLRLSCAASGFTLNNYGISWVRQAPGKGPEWVSVIYSDGRRTFYDDSVKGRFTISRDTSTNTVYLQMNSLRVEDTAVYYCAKGKLAGTFDSWGQGTLVTVSS | GP_HC | 0.87 | 6 of 6
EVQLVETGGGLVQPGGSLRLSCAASGFELNSYGISWVRQAPGKGPEWVSVIYSDGRRTFYADSVKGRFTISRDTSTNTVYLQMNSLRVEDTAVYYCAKGHAAGTFDLWGQGTLVTVSS | GP_Gibbs | 0.23 | 6 of 6
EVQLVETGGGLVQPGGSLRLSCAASGFELNSYGISWVRQAPGKGPEWVSVIYSDGHRTFYGDSVKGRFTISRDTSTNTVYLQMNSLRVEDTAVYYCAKGRTAGTFDSWGQGTLVTVSS | GP_Gen | 0.94 | 6 of 6
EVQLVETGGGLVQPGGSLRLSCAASGFDLNSYGISWVRQAPGKGPEWVSVIYSDGRRTFYSDSVKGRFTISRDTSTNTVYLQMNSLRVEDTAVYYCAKGREAGTFDSWGQGTLVTVSS | GPLM_Gibbs | -0.32 | 6 of 6
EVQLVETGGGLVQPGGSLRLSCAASGFTLNSYGISWVRQAPGKGPEWVSVIYADGRRTFYIISVKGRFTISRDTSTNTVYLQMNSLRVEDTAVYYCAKGRASGTFLSWGQGTLVTVSS | Ctrl | nd | 0 of 6
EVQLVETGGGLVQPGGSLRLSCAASGFHLDEYGISWVRQAPGKGPEWVSVIYADGKRSVYTNDVKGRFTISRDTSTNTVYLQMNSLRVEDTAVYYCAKGELQIGFVIWGQGTLVTVSS | En_Gibbs | nd | 0 of 6
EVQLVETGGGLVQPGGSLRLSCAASGFTLDSYGISWVRQAPGKGPEWVSVIYSDGRVTFYGDSVKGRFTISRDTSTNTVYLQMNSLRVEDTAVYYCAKGRAAGTALYWGQGTLVTVSS | Rand | nd | 0 of 6

For reference, 2 entries of the list once more:

VH	group	mean, log10 nM	detected
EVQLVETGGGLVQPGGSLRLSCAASGFTLNSYGISWVRQAPGKGPEWVSVIYADGRRTFYIISVKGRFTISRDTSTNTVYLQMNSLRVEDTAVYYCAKGRASGTFLSWGQGTLVTVSS	Ctrl	nd	0 of 6
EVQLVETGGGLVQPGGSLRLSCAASGFELNSYGISWVRQAPGKGPEWVSVIYSDGRRTFYADSVKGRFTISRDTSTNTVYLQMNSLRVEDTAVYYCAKGHAAGTFDLWGQGTLVTVSS	GP_Gibbs	0.23	6 of 6

In the paper, a design with two or fewer of six values counts as a poor binder. A sequence measured in both rounds can read differently, since the two assays cover different ranges. As a blank, each scFv also met three strains without target: over all heavy chain designs, 1% of these pairings were detected, typically at 2.08 and seldom below 0.84.